By UniProt entry, the sequences of proteins in these tests, tags left out.
UniProt Q99640, whole entry: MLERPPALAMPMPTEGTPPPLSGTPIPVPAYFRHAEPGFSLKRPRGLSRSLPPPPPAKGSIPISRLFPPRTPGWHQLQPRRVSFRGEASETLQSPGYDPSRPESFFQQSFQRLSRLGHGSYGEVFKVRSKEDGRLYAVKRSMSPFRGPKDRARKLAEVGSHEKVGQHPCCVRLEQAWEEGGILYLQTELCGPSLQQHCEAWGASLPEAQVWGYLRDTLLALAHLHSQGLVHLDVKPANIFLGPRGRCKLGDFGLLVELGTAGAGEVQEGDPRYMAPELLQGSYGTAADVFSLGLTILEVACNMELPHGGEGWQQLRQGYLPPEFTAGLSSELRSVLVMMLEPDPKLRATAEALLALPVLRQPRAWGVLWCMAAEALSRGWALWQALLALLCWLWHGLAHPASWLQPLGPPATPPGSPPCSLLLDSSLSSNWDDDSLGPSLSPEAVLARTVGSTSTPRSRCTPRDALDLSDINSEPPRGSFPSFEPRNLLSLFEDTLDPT

In US20260062412A1, “NITROGEN-CONTAINING HETEROCYCLIC COMPOUND HAVING MYT1 INHIBITORY ACTIVITY” (CHUGAI SEIYAKU KABUSHIKI KAISHA, priority 2023, published 2026):

Tests used:
MYT1 protein [1] = target: T1, MYT1 protein (Homo sapiens (Human), UniProt Q99640); experiment: Test for binding to ATP binding site of MYT1 (Kinase Tracer 178 / Eu-Anti-GST antibody TR-FRET); conditions: read-out: Binding IC50; ATP binding site of MYT1, 30 minutes at room temperature
MYT1 protein [2] = target: T1, MYT1 protein; experiment: MYT1 kinase activity inhibition test (ELISA, phosphorylation of Y15 of CDK1); conditions: read-out: ELISA IC50; phosphorylation level of Y15 of CDK1 protein caused by MYT1 protein, 60 minutes
Experimental: The MYT1 kinase activity inhibitory capacity of each compound was evaluated by evaluating the phosphorylation level of Y15 of CDK1 protein caused by MYT1 protein, by ELISA. The kit of CycLex Weel Kinase Assay/Inhibitor Screening Kit Ver. 3 (manufactured by MBL, CY-1172V3) was used. Using Kinase Buffer, 10 μL of 5 nM MYT1 protein (manufactured by Carna Biosciences, Inc.) was prepared. In addition, 30 μL of 83.3 μM of ATP was prepared using Kinase Buffer. In addition, 10 μL of each compound was diluted to each concentration using Kinase Buffer. 30 μL of ATP was added to the plate of the kit, and thereafter, 10 μL of each compound was added thereto. Further, 10 μL of the diluted MYT1 protein solution was added thereto, and then the mixture was mixed, which was allowed to stand at room temperature for 60 minutes. The reaction solution was removed from each well, and each well was washed using Wash Buffer. After Wash Buffer was removed, 100 μL of HRP conjugated Anti-phospho-tyrosine antibody was added to each well, which was allowed to stand at room temperature for 60 minutes. […] Absorbances at 450 nm and 590 nm were measured using Envision (manufactured by PerkinElmer). The phosphorylation level of CDK1 protein was evaluated for each well by subtracting the absorbance at 590 nm from the absorbance at 450 nm. […]

SMILES: Nc1c(-c2ccc(F)c3[nH]ncc23)c2cc(Br)c3cccnc3c2[nH]c1=O
- IC50 (MYT1 protein [1]): 0.009 µM
- IC50 (MYT1 protein [2]): 0.017 µM
